Target: T1, bovine spleen ADA (Bos taurus, UniProt P56658)
T1 sequence (P56658 1-363): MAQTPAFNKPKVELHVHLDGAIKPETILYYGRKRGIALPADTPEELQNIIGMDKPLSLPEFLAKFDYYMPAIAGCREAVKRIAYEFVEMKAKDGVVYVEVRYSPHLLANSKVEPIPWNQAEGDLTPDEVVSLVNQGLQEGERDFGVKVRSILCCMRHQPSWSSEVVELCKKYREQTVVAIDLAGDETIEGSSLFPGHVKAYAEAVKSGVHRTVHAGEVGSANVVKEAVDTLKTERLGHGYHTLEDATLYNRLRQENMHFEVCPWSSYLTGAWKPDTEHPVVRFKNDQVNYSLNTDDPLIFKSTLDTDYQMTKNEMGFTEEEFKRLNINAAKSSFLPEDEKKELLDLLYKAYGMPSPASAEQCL
Experiment: HTS plate-reader fluorescence assay of ADA
Format: biochemical
Settings: HTS assay format

IC50 (EHNA 10-point curve, 37 °C): 6 ± 2 nM
Ki (converted from IC50 by Cheng-Prusoff): 5 ± 2 nM
Substance: erythro-9-(2-hydroxy-3-nonyl) adenine [EHNA]

Reference: publication PMC7815202 (ChemMedChem, 2020)
